## Yeast mating assay B: variants of the scFv Ab-14

Target peptide (SARS-CoV-2 spike, HR2 region): PDVDLGDISGINAS

Each scFv is VH, a 15-residue (Gly4Ser)3 linker, VL, as in the parent Ab-14, and differs from it in the CDRs of the heavy chain only.
VH: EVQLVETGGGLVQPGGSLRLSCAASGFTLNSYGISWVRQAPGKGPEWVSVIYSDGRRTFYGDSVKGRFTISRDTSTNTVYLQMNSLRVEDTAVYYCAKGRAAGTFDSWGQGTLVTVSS
VL: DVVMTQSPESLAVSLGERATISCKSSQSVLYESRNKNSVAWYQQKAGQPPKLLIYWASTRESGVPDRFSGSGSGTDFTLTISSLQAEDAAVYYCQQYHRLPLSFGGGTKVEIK

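Phage display of a naive human antibody library on the peptide gave the parent. These sequences belong to a second round, designed from the earlier measurements on random variants of the parent. Several design methods are mixed in this list. The scFvs were displayed on barcoded MATa yeast, the peptide on MATalpha yeast. Binding brings cells together so that they mate, and sequencing counts the barcode pairs among the diploids. Each replicate has its own calibration line, from reference interactions of the BCL2 family. There are six technical replicates.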

Each variant is given by its three heavy chain CDRs, as the data file delimits them; those of the parent are GFTLNSYGIS, VIYSDGRRTFYGDSVK, GRAAGTFDS. This list holds designs with at most six substitutions. Values are apparent Kd, the geometric mean of the replicates that gave a signal; lower means stronger binding. "nd" means that the variant was in the library but no mating with the target was seen in any replicate; the authors take this as a sign of poor binding, and no number exists. Three control strains display no target. For all heavy chain designs, 1% of the pairings with them gave a signal, with a median of 120 nM and one signal in twenty below 7.0 nM, so weak values seen in few replicates may be background. In the paper, a design with two or fewer of six values counts as a poor binder. A sequence measured in both rounds can read differently, since the two assays cover different ranges. Of ten entries with the parent sequence, four were seen in most replicates (averages 2.2 nM to 240 nM), three in one and three in none, so single entries are noisy.

The variant GFELNSYGIS / VIYSDGRRTFYIDSVK / GQAAGTFDS showed nd (0 of 6 replicates).
The variant GFTLNEYGIS / VIYSDGRRTFYGDSVK / GHAAGTFDE showed 14 nM (6 of 6 replicates).
The variant GFRLNSYGIS / VIYSDGRRTFYGDSVK / GKAAGTFPS showed nd (0 of 6 replicates).
The variant GFELNTYGIS / VIYSDGRRTFYGDSVK / GQTAGTFDS showed 1.8 nM (6 of 6 replicates).
The variant GFQLNEYGIS / VIYSDGRRTFYGDSVK / GRAGGTFIS showed nd (0 of 6 replicates).
The variant GFTLNNYGIS / VIYSDGRRTQYIDSVK / GRAAGTFDS showed 1.0 µM (2 of 6 replicates).
The variant GFTLNSYGIS / VIYSDGRRTFYGDSVK / GRATGTDDS showed nd (0 of 6 replicates).
The variant GFSLNDYGIS / VIYSDGRRTFYGDSVK / GRMAGTFIS showed nd (0 of 6 replicates).
The variant GFELNSYGIS / VIYSDGRRTFYSDSVR / GRYAGTFDS showed 2.8 nM (6 of 6 replicates).
The variant WFDLNSYGIS / VIYSDGRRTAYGDSVK / GRTAGTFDS showed 28 nM (6 of 6 replicates).
The variant GFELNSYGIS / VIYSDGRRTFYQDSVK / GRLAGTFDS showed 39 nM (2 of 6 replicates).
The variant KFTLNEYGIS / VIYSDGRRTFYGDSVK / GRQAGTFDS showed 14 nM (1 of 6 replicates).
The variant GFTLNSYGIS / VIYSDGKRTFYSDSVK / GSAAGTFDS showed 23 nM (6 of 6 replicates).
The variant GFDLNEYGIS / VIYADGRRTFYKDSVK / GEAAGTFDT showed 710 pM (6 of 6 replicates).
The variant GFSLNEYGIS / VIYSDGRRTFYGDQVK / GRAAGTFDK showed 2.8 nM (6 of 6 replicates).
The variant GFLLNDYGIS / VIYSDGRRTFYKDSVK / GRAAGTFTS showed nd (0 of 6 replicates).
The variant GFTLNSYGIS / VIYSDGRRTFYGDSVK / GQAAATFDS showed nd (0 of 6 replicates).
The variant GFNLNSYGIS / VIYSDGRRTFYSDSVK / GRVAGTFDS showed 910 pM (6 of 6 replicates).
The variant GFGLNEYGIS / VIYSDGRRTFYGDSVK / GQAAGTFDL showed 4.6 nM (6 of 6 replicates).
The variant GFTLNMYGIS / VIYSDGRRTFYGDSVK / GRAAGTFDW showed 11 nM (4 of 6 replicates).
The variant GFTLNSYGIS / VIYADGRRTFYGDSVK / GRAAGTFNS showed 13 nM (3 of 6 replicates).
The variant GFDLNEYGIS / VIYSDGRRTFYGDSVK / GTAAGTFDS showed 560 pM (6 of 6 replicates).
The variant QFDLNSYGIS / VIYSDGRRTFYGDSVK / GWDAGTFDS showed nd (0 of 6 replicates).
The variant GFTLNSYGIS / VIYSDGRRTFYSDSVK / GSAGGTFDI showed 160 nM (4 of 6 replicates).
The variant GFTLNDYGTS / VIYSDGRRTQYIDSVK / GRRAGTFDS showed nd (0 of 6 replicates).
The variant GFTLNDYGIS / VIYSDGRRTYYSDSVK / GRAAGTFDS showed 4.3 nM (6 of 6 replicates).
The variant GFTLNQYGIS / VIYSDGRRTFYGDSVK / GRAAVTFDQ showed nd (0 of 6 replicates).
The variant HFNLNSYGIS / VIYSDGRRTFYIDSVK / GNAAGTFDS showed 53 nM (6 of 6 replicates).
The variant GFTPNSYGIS / VIYSDGRRTFYDDSVK / GRAGGTFIS showed nd (0 of 6 replicates).
The variant GFTLNSYGIS / VIYADGHRTFYGDSVK / GRIAGTFDS showed 1.3 nM (6 of 6 replicates).
The variant GFELNSYGIS / VIYSDGRRTFYDDSVK / GRAAGTFDV showed 5.4 nM (6 of 6 replicates).
The variant GFELNSYGIS / VIYSDGRRTFYGDSVK / GLNAGTFDS showed 4.9 nM (4 of 6 replicates).
The variant GFTLNSYGIS / VIYADGKRTFYGDSVK / GRAAGTFDK showed 3.5 nM (6 of 6 replicates).
The variant GFDLNSYGIS / VIYSDGRRTFYADSVK / GRAAGTFDA showed 9.5 nM (6 of 6 replicates).
The variant GFDLNSYGIS / VIYSDGRRTFYHDSVK / GKNAGTFDS showed 2.5 nM (6 of 6 replicates).
The variant GFNLNSYGIS / VIYSDGRRTFYTDSVK / GQTAGTFDS showed 3.1 nM (6 of 6 replicates).
The variant GFTLNEYGIS / VIYSDGRRTAYQDSVK / GRAAGTFVS showed nd (0 of 6 replicates).
The variant GFDLNSYGIS / VIYSDGRRTAYGDAVK / GRAAGTFDS showed 190 pM (6 of 6 replicates).
The variant GNTLNSYGIS / VIYSDGRRTAYGDSVK / GRAALTFDS showed 43 nM (5 of 6 replicates).
The variant GFTLNSYGIS / VIYSDGRRTFYIDDVK / GQAAGTFDK showed 85 nM (6 of 6 replicates).
The variant GFTLNEYGIS / VIYADGRRTFYGDSVK / GRAAGTFDQ showed 3.8 nM (1 of 6 replicates).
The variant GFDLNSYGIS / VIYSDGRRTFYGDSVK / GKAAGTFDC showed nd (0 of 6 replicates).

Data: MIT Lincoln Laboratory AlphaSeq set, Li et al. 2023, doi:10.1038/s41467-023-39022-2, as distributed in FLAb.